## Yeast mating assay 2: variants of the scFv Ab-95

Data: MIT Lincoln Laboratory AlphaSeq set, Engelhart et al. 2022, doi:10.1038/s41597-022-01779-4, as distributed in FLAb.

Target: peptide PDVDLGDISGINAS, taken from heptad repeat 2 (HR2) of SARS-CoV-2 spike.

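The starting antibody came from a phage panning campaign against this peptide. Variants in AAYL52 differ from the parent at up to three CDR positions; double and triple changes were sampled at random. AlphaSeq pools MATa yeast showing the antibodies with MATalpha yeast showing the peptide. Mating (16 h, 30 °C) was followed by selection of diploids and sequencing of their barcodes. A regression on co-assayed BCL2-family reference pairs converts the normalised counts of each replicate to an apparent Kd. The assay was run in three technical replicates.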

Ab-95 is the parent antibody, in scFv form: VH, then a (GGGGS)3 linker, then VL. The heavy chain is unchanged in all variants.
VH: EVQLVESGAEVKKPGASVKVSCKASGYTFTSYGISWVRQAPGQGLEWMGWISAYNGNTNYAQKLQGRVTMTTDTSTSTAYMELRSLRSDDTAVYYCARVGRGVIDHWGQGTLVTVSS
VL: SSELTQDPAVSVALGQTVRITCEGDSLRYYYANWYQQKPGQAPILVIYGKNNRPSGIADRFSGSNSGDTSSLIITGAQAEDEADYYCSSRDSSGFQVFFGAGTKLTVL

Variants are written as CDR1, CDR2 and CDR3 of the light chain (limits as in the source). Parent: EGDSLRYYYAN, GKNNRPS, SSRDSSGFQVF. All variants listed here change R28 of the VL, counted from its first residue. The read-out is the apparent dissociation constant on a log10 scale (nM): the lower, the stronger. Replicates are averaged; those with no signal do not enter the mean. Where no diploid with the target was found in any replicate, the entry reads "no signal": below detection, most likely a poor binder, though not proof of it. Empty control strains, which show no peptide, gave a signal in 28% of pairings with library AAYL52; the median was 3.91 and 95% of these signals were weaker than 2.90. No background was subtracted.

CDR-L1	CDR-L2	CDR-L3	log10 Kd (nM), mean	seen in
EGDSLCYYYKN	GKNNRPS	SSRDDSGFQVF	no signal	0/3
EGDSLLYYYAN	GANNRPS	GSRDSSGFQVF	3.18	3/3
EGSSLTYYYAN	GKNNRPS	SKRDSSGFQVF	3.31	1/3
EGDSLDYYYAN	GKNNRPW	SSRDSMGFQVF	4.48	1/3
EGDSLVYYYAN	GKNWRPS	SSRDSSGFQVF	2.65	3/3
EGDSLLYYYAN	GKNNRPS	SSRDSSWFQVF	no signal	0/3
EGDSLVYYCAN	GKNNRPS	SSRDSSGFQDF	3.97	3/3
EGDSLIYYYAN	GKNNRPS	YSRDWSGFQVF	3.81	3/3
QGDSLMYYYAN	GKNNDPS	SSRDSSGFQVF	3.31	2/3
EGDSLPYYDAN	GKNNRPS	SSRDSSGFQIF	3.73	2/3
EGDSLKYYYAN	RKNNRPS	SSRDSSGIQVF	5.54	1/3
EGDSLDFYYAN	GKNNRPS	SHRDSSGFQVF	2.77	3/3
EGDSLAYYYAN	GKNNRPS	SSRPSSGFQVF	3.31	2/3
EGDSLKYYYAE	GKNNRPS	SSCDSSGFQVF	5.28	2/3
EGDSLWYYAAN	MKNNRPS	SSRDSSGFQVF	5.09	1/3
EPDSLNYYYAN	GKNNRPS	SSRDSSYFQVF	4.20	1/3
EGDSLHYYYAN	GKNNRAS	SSRDSDGFQVF	2.62	3/3
EGDTLFYYYAN	CKNNRPS	SSRDSSGFQVF	4.87	1/3
EGDSLNYYYAN	GMNNRPS	SSDDSSGFQVF	4.63	1/3
EGDSLGYYYAN	GGNNRRS	SSRDSSGFQVF	2.60	3/3
EGDSLMYYYGN	GKNNRPS	SSRDSSGFVVF	5.03	2/3
EGDSLWYYTAN	GKNNRPS	SSRDSSGFQVF	2.34	3/3
EGDSLNYYYIN	GKNNRPS	SSRDSSGRQVF	2.55	3/3
EGRSLKYYAAN	GKNNRPS	SSRDSSGFQVF	1.35	3/3
EGDSLHYYYAN	GKNRRPS	SSRDSSGFQVF	3.40	2/3
EGDSKQYYYAN	GKNNRPS	SQRDSSGFQVF	3.07	3/3
EGDSLEYYYAN	PKNNRPS	SSNDSSGFQVF	4.18	3/3
EGDSLDYYYGN	GKNNRPS	SSRDSSGFQGF	3.63	2/3
EGDSLEYYYAN	GKCNRPS	SSLDSSGFQVF	no signal	0/3
EGTSLGYYYAN	GKNNRPS	SSRDSSGFQVF	1.70	3/3
EGDSLSYYYAN	GKNNRPS	SSWDSSGFQVF	3.44	1/3
EGCSLTYYYAN	GKTNRPS	SSRDSSGFQVF	no signal	0/3
EGDSLYYYEAN	GKNNRPS	SSRDSSGTQVF	1.58	3/3
EGDSLEYYYAN	GKWNRPS	SSRDSSGGQVF	4.43	2/3
DGDQLAYYYAN	GKNNRPS	SSRDSSGFQVF	4.98	2/3
EGDSLGYYYAV	GKNNRPS	SSRDSSGAQVF	2.59	3/3
CGDSLWYYYWN	GKNNRPS	SSRDSSGFQVF	no signal	0/3
EGDSLEYQYAN	GKNNRPS	SSRDSSGFLVF	1.09	3/3
EGESLVYYYAN	GKNNRPS	SSRDSSDFQVF	3.04	3/3
EQDSLMYYYAN	GKNNRSS	SSRDSSGFQVF	4.77	3/3
EGDSLVYFYAN	GKNNRPS	SSRNSSGFQVF	4.24	2/3
EGDSLVYYYAN	GKNNRPH	GSRDSSGFQVF	3.14	3/3
EGDMLEYYYAN	GKNNRPS	SSTDSSGFQVF	no signal	0/3
EGDSLYYYYAN	GKNNRPS	SSRDNWGFQVF	3.93	3/3
EGDSRQYYYAN	GKNNRPS	SSRDSAGFQVF	3.03	3/3

Picked from the list: the 7 lowest averages where every replicate gave a value.

CDR-L1	CDR-L2	CDR-L3	log10 Kd (nM), mean	seen in
EGDSLEYQYAN	GKNNRPS	SSRDSSGFLVF	1.09	3/3
EGRSLKYYAAN	GKNNRPS	SSRDSSGFQVF	1.35	3/3
EGDSLYYYEAN	GKNNRPS	SSRDSSGTQVF	1.58	3/3
EGTSLGYYYAN	GKNNRPS	SSRDSSGFQVF	1.70	3/3
EGDSLWYYTAN	GKNNRPS	SSRDSSGFQVF	2.34	3/3
EGDSLNYYYIN	GKNNRPS	SSRDSSGRQVF	2.55	3/3
EGDSLGYYYAV	GKNNRPS	SSRDSSGAQVF	2.59	3/3